Experiment [1] is described as follows: compound binding in COS7 lysate, probe aLAP1, primary screen, cell lysate, small-molecule microarray (AID 1124).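 Also: lysate comes from COS7 cells expressing LAP1 and is applied at 0.3 µg/mL; score merges spot fluorescence near 667 nm with signal-to-noise over triplicate slides.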 The note with it: probe aLAP1, fluorescence, higher = more signal.
The subject of experiment [2] is Sam68 (KHDRBS1). Briefly: Sam68 small-molecule binders, primary screen, biochemical, small-molecule microarray, 635 nm fluorescence (AID 1125).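 Also: score merges 667 nm channel intensity with signal to noise over triplicate slides.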 The settings on record: small-molecule microarray binding, higher = more signal.
Experiment [3] deals with Chordin-like protein 2 (CHRDL2). Briefly: CHRDL2 small-molecule binders, primary screen, biochemical, small-molecule microarray, 635 nm fluorescence (AID 1126).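 Also: printed compound slides probed with Chrdl2 protein at 4 µg/mL for 1 h at 4 C; score merges 667 nm emission intensity with signal to noise over three replicate slides.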 The settings on record: small-molecule microarray binding, fluorescence 635 nm; higher = more signal.
Experiment [4] concerns the target Concanavalin-A (Canavalia ensiformis) (UniProt P02866). Briefly: ConA small-molecule binders, primary screen, artefact control for SMM control protein annotation, biochemical, small-molecule microarray, Alexa647 label, 635 nm (AID 1127).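 Also: z combines 667 nm emission intensity with signal-to-noise across three replicate slides.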 The settings on record: ConA-A647 binding fluorescence, higher = more signal.
Experiment [5] is described as follows: anti-His antibody binders, primary screen, artefact control for SMM control protein annotation, biochemical, small-molecule microarray, 635 nm fluorescence (AID 1128).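 Also: score merges feature fluorescence with signal-to-noise for each printed compound spot.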 The note with it: anti-His Alexa647 antibody binding, higher = more signal.
The target in experiment [6] is Focal adhesion kinase 1 (Homo sapiens) (UniProt Q05397). As to the kind of experiment: small-molecule microarray binders of FAK, primary screen, biochemical, 635/667 nm fluorescence, BSA, DTT (AID 1130).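 Also: composite of spot emission at 667 nm and signal to noise over triplicate slides.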 The settings on record: PTK2 binding, 635 nm fluorescence, higher = more signal.
In experiment [7] the test system is Fibrinogen (Alexa647-labelled). As to the kind of experiment: fibrinogen binders on compound microarrays, profiling panel, artefact control for SMM control-protein annotation, biochemical, small-molecule microarray, 635/667 nm fluorescence (AID 1131).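 Also: z-score merges 667 nm fluorescence with per-spot signal-to-noise over triplicate slides.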 The settings on record: fibrinogen-A647 binding fluorescence, higher = more signal.
Experiment [8] deals with Follistatin (Homo sapiens) (UniProt P19883). Briefly: follistatin binders on small-molecule microarrays, primary screen, biochemical, small-molecule microarray, 635/667 nm fluorescence (AID 1132). The settings on record: FST binding, 635 nm fluorescence, higher = more signal.
Experiment [9] concerns the target Fibroblast growth factor 2 (Homo sapiens) (UniProt P09038). Briefly: FGF2 binders on small-molecule microarrays, primary screen, biochemical, small-molecule microarray, 635/667 nm fluorescence (AID 1133). The settings on record: small-molecule microarray binding, FGF2, fluorescence 635/667; higher = more signal.
Experiment [10] can be described thus: mitochondrial membrane potential change in A549 cells, profiling panel, cell-based, JC-1 fluorescence, basal, 24 h, 100 nL (AID 1138).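 Also: A549 lung adenocarcinoma cells under basal conditions with no added stimulus; test concentration not given here.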 The note with it: higher = more signal.
Experiment [11] has as its system Lefty1. Briefly: Lefty1 binders on small-molecule microarrays, primary screen, biochemical, small-molecule microarray, 635/667 nm fluorescence (AID 1139). The settings on record: small-molecule microarray binding, fluorescence 635/667; higher = more signal.
Experiment [12] relates to wheat germ agglutinin (Triticum aestivum), Alexa647-labelled. Briefly: wheat germ agglutinin binders on compound microarrays, profiling panel, artefact control for SMM control-protein annotation, biochemical, small-molecule microarray, 635/667 nm fluorescence (AID 1140).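 Also: score merges 667 nm feature emission with signal to noise over triplicate slides.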 The settings on record: WGA-A647 binding, 635 nm fluorescence, higher = more signal.
In experiment [13] the test system is Wnt5a (protein binding on small-molecule microarray). Briefly: Wnt5a binders on small-molecule microarray, primary screen, biophysical, 635/667 nm fluorescence (AID 1142).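 Also: fluorescence read at 667 nm with signal to noise per printed feature.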 The settings on record: 635 nm fluorescence, higher = more signal.
A short description of experiment [14]: cell viability in Huh7 cells, primary screen, cytotoxicity control for HCV replication inhibitor project, CellTiter-Glo luminescence, basal, 48 h (AID 1143).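 Also: Huh7 hepatoma cells carrying a hepatitis C replication reporter with no stimulus; test concentration not given here.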 The note with it: Huh7 HCV replicon, higher = more signal, called active from +8 up or from −8 down. (In general: In ATP-based viability assays light output follows the ATP content of the culture.)
A short description of experiment [15]: CREB reporter modulators under forskolin, primary screen, cell-based, PC12, CRE-LacZ reporter, forskolin-stimulated (AID 1146).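 Also: PC12 cells with 6xCRE LacZ reporter stimulated by forskolin 10 µM; beta-galactosidase reporter signal reflecting CREB driven transcription.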 The note with it: luminescence, 4.5 h, higher = more signal, called active from +8 up or from −8 down.
Experiment [16] deals with Streptavidin (Streptomyces avidinii) (UniProt P22629). As to the kind of experiment: streptavidin binders on small-molecule microarray, primary screen, artefact control for SMM compound annotation, biophysical, 635/667 nm fluorescence (AID 1147).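 Also: signal reflects streptavidin binding to arrayed compounds as a control protein.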 The note with it: streptavidin binding, higher = more signal.
Experiment [17] can be described thus: small-molecule binders of probe aInhba, primary screen, biochemical, small-molecule microarray, 635/667 nm fluorescence (AID 1148).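 Also: score merges 667nm spot fluorescence with signal-to-noise for antibody binding to printed compounds.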 The note with it: higher = more signal.
Experiment [18] addresses Torsin-1A (Homo sapiens) (UniProt O14656). Briefly: torsin A binders from cell lysate, primary screen, small-molecule microarray, wild-type, 635/667 nm (AID 1149). The note with it: COS7 hTOR1A-WT lysate, 635 nm fluorescence, higher = more signal.
Experiment [19] has the same target. As to the kind of experiment: small-molecule binders of mutant TOR1A in lysate, primary screen, cell lysate, small-molecule microarray, COS7 lysate, 635/667 nm fluorescence (AID 1150).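 Also: score pools 667 nm emission and signal to noise measuring lysate protein binding.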 The note with it: COS7 hTOR1A mutant lysate, 635 nm fluorescence, higher = more signal.
Experiment [20] has as its system Sonic hedgehog protein (Shh). As to the kind of experiment: small-molecule binders of Shh protein, primary screen, biochemical, small-molecule microarray, 635/667 nm fluorescence (AID 1151).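 Also: Shh protein binding to compounds spotted on small-molecule microarray slides; score combines spot fluorescence intensity with signal-to-noise across triplicate slides.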 The settings on record: small-molecule microarray binding, 635 nm fluorescence; higher = more signal.

The chains behind the UniProt entries cited, without tags or fusion partners. Where a name states a change or a piece, a line headed by the entry shows the natural chain unless it says otherwise.
UniProt P02866, whole entry, looked up: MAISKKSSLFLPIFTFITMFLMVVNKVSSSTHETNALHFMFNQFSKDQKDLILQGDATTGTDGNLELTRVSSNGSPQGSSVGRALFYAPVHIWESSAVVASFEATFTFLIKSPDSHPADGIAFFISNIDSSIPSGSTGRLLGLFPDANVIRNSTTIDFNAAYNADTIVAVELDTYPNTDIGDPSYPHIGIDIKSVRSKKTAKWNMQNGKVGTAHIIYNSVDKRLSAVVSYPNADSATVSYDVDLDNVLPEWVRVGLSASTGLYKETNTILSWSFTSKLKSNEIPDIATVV
UniProt Q05397, whole entry, looked up: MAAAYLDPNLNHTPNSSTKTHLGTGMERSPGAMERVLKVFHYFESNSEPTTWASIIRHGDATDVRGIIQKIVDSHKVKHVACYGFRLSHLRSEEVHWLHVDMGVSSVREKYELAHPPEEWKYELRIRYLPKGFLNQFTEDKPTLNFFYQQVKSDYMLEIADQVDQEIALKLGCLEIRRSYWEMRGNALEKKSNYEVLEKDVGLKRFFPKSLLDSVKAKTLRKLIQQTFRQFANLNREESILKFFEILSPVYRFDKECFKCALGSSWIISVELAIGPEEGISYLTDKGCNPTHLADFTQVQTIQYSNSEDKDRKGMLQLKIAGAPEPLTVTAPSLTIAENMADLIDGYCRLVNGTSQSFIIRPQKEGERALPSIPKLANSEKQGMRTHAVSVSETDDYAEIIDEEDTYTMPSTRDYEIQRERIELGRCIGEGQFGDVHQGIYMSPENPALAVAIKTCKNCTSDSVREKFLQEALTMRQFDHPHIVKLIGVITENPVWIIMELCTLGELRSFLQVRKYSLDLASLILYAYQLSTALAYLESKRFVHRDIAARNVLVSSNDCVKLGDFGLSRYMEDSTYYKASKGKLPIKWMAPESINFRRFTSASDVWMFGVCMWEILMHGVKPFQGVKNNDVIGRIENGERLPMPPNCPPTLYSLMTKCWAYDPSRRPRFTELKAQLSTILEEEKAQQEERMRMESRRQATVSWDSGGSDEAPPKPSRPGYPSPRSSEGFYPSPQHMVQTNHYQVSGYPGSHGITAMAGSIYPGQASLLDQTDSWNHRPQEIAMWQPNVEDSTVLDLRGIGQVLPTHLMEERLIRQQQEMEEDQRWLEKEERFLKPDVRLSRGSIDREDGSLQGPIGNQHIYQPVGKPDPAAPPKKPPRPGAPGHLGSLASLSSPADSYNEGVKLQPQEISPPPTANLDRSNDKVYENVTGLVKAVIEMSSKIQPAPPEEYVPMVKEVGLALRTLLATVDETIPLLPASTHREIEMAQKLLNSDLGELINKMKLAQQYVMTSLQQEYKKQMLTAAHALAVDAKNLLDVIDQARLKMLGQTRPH
UniProt P19883: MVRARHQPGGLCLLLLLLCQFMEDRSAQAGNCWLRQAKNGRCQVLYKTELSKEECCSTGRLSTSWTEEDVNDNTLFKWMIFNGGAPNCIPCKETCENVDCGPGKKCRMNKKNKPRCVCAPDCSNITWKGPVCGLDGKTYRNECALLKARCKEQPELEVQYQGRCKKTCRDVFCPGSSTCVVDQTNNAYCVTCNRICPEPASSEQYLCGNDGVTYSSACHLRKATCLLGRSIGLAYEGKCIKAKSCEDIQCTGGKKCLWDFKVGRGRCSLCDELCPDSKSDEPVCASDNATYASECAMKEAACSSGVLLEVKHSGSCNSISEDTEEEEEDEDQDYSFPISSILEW
UniProt P09038, whole entry, looked up: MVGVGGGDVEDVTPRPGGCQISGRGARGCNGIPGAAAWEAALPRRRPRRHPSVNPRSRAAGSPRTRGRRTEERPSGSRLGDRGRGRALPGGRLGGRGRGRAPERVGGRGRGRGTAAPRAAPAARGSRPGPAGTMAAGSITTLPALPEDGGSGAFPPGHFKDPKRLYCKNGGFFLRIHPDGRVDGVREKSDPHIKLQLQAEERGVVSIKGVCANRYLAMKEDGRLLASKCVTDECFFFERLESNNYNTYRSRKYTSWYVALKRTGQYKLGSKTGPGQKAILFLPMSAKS
UniProt P22629, whole entry, looked up: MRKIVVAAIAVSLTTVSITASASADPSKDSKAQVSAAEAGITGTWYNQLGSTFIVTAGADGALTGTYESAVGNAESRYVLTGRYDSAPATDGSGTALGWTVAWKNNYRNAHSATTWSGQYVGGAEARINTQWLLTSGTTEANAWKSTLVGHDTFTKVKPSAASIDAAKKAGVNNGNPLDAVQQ
UniProt O14656: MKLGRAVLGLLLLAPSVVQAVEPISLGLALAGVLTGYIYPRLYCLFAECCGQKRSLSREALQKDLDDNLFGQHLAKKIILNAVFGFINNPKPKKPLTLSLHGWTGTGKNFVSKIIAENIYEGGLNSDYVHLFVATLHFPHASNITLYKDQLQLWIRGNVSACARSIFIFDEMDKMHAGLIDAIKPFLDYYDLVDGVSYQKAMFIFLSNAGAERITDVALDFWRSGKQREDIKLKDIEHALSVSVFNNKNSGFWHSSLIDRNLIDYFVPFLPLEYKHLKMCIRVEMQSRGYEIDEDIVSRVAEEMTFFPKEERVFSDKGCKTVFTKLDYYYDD

We go through 7 compounds from PubChem BioAssay.

The list shows a part of the results, in another mix than the full data. The source made the active and inactive calls.

Take `O=P(/N=C1/CC(CCCO)=CC(c2cccs2)N1Cc1cc2c(cc1Br)OCO2)(Oc1ccccc1)Oc1ccccc1` (stereo not given): the composite z-score in [1] was 0.92; in experiment [2], 1.3; in experiment [3] it was 0.0598; in [4], 0.84; in experiment [5], 2.16; in [6], 0.994. The composite z-score in experiment [7] was found to be 0.971; in [8], 0.859; in experiment [9], 0.668; in [11], 0.552; in experiment [12], 1.03; in experiment [13], 0.0756. The composite z-score in experiment [16] came to 2; in [17], 0.174; in experiment [18], 0.354; in experiment [19], 0.715; in experiment [20], 0.142. In addition, the values for the z-score in [10], in experiment [14] and in experiment [15] were 2, inactive: -1.75 and inactive: 0.59, respectively.

Consider `O=P(/N=C1/CC(CCCO)=CC(C2CC2)N1Cc1cccc(OC(F)(F)F)c1)(Oc1ccccc1)Oc1ccccc1` (stereo not given), for which the composite z-score in experiment [1] was -0.153; in [2], 0.787; in [3] it was -0.686; in [4] it was 0.41; in [5] it was -0.117; in experiment [6], -0.397. For the same compound, the composite z-score is 0.799 in experiment [7]; 0.389 in [8]; -0.179 in experiment [9]; 0.0693 in experiment [11]; 0.896 in experiment [12]; -0.281 in experiment [13]. For the same compound, the composite z-score in experiment [16] is 0.109; in [17], -0.0963; in [18], 0.523; in experiment [19], 0.806; in [20] it was 0.203. Further, the figures for the z-score in [10], in experiment [14] and in [15] were -0.648, inactive: -1.55 and inactive: 1.02, respectively.

With `CC1C=C(CCCO)C/C(=N/P(=O)(Oc2ccccc2)Oc2ccccc2)N1Cc1cccc(OC(F)(F)F)c1` (stereo not given), the composite z-score in [1] was 0.184; in [2], 0.95; in experiment [3], -0.373; in [4], 0.818; in [5] it was 0.645; in experiment [6], 0.841. In addition, the composite z-score in [7] was 0.647; in experiment [8] it was 0.617; in experiment [9], -0.117; in experiment [11], 0.415; in experiment [12], 1.17; in experiment [13], -0.186. The composite z-score was 0.393 in [16]; -0.0645 in [17]; 1.22 in [18]; 1.22 in [19]; 0.153 in experiment [20]. Also, the values for the z-score in experiment [10], in experiment [14] and in [15] were -0.61, inactive: -1.18 and inactive: 0.0059, respectively.

`COP(=O)(/N=C1/CC(c2ccc(CO)cc2)=CC(C2CC2)N1C)OC` (stereo not given): the composite z-score in experiment [1] is -0.614; in experiment [2], -0.36; in experiment [3], 0.081; in experiment [4] it was 1.02; in experiment [5] it was 0.246; in experiment [6], 0.0419. In addition, the composite z-score stood at 0.939 in experiment [7]; 0.81 in [8]; 0.349 in experiment [9]; 0.275 in [11]; 0.878 in experiment [12]; 0.125 in [13]. Also, the composite z-score in experiment [16] was 1.19; in [17], 0.0219; in experiment [18] it was -0.0993; in experiment [19], 0.174; in [20], 0.378. Further, the z-score was 0.112 in [10], inactive: -1.85 in [14] and inactive: -0.955 in experiment [15].

Consider `CN1/C(=N\P(=O)(Oc2ccccc2)Oc2ccccc2)CC(c2ccc(CO)cc2)=CC1C1CC1` (stereo not given), for which the composite z-score in [1] was 1.22; in experiment [2], 0.814; in [3] it was -0.695; in experiment [4], 0.967; in experiment [5], 0.637; in experiment [6] it was 1.33. The composite z-score was determined as 0.528 in experiment [7]; 0.894 in experiment [8]; 0.0676 in experiment [9]; 0.104 in experiment [11]; 1.25 in [12]; 0.182 in experiment [13]. The composite z-score was found to be 0.684 in [16]; 0.0566 in experiment [17]; 0.0112 in experiment [18]; 0.957 in experiment [19]; 0.958 in experiment [20]. Also, the z-score was 1.66 in experiment [10], inactive: -3.05 in experiment [14] and inactive: -1.12 in experiment [15].

Turning to `O=P(/N=C1/CC(CCCO)=CC(c2cccs2)N1Cc1cccc(OC(F)(F)F)c1)(Oc1ccccc1)Oc1ccccc1` (stereo not given), the composite z-score in [1] was 0.631; in experiment [2] it was 1.15; in experiment [3], -0.296; in experiment [4], 1.1; in [5] it was 0.821; in [6], 1.23. Also, the composite z-score in experiment [7] was 0.737; in [8], 0.235; in [9], -0.2; in [11] it was -0.335; in experiment [12], 0.492; in [13], 0.13. Also, the composite z-score in [16] was 0.99; in experiment [17] it was 0.144; in experiment [18], -0.122; in experiment [19], 0.734; in experiment [20], 0.0178. Also, the z-score in [10] was 2.5; in experiment [14], inactive: -1.65; in experiment [15], inactive: -0.174.

With `COP(=O)(/N=C1/CC(CCCO)=CC(C)N1Cc1cccc(OC(F)(F)F)c1)OC` (stereo not given), the composite z-score turned out to be 0.353 in experiment [1]; 0.286 in [2]; 0.0669 in experiment [3]; 0.447 in [4]; 0.159 in experiment [5]; 0.281 in experiment [6]. The composite z-score in experiment [7] came to 0.558; in [8] it was 0.697; in experiment [9] it was 0.246; in experiment [11], 0.0739; in [12] it was 0.648; in experiment [13] it was 0.0808. Moreover, the composite z-score in [16] is 0.854; in experiment [17] it was 0.397; in experiment [18] it was 0.674; in experiment [19] it was 1.2; in experiment [20] it was 0.418. Moreover, the z-score in experiment [10] is 1.51; in [14], inactive: -1.33; in [15], inactive: -0.645.
